Source: paper PMC7503597 (International Journal of Molecular Sciences, 2020)

Protein sequences, listed by entry. Tags and fused reporters are not part of them. Lines headed by an entry give the natural chain unless they say otherwise; changes in a name come on top.
UniProt P35462, whole entry: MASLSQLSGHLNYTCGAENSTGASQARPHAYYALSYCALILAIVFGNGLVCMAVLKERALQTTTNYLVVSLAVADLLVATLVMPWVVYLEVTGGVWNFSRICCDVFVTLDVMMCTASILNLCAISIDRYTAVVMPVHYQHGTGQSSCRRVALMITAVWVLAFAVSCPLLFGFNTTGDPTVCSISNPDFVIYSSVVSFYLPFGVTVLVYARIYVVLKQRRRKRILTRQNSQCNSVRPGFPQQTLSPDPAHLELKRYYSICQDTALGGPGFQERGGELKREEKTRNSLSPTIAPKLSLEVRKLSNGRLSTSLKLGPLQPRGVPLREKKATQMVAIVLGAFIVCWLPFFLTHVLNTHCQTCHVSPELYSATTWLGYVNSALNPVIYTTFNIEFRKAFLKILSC

Target: T1, wild-type D3R (hD3R) (Homo sapiens, UniProt P35462)
T1 construct: gene DRD3
Experiment: biochemical

Ki: 0.0631 µM
SMILES: CCN1CCC[C@H]1CNC(=O)c1cc(S(N)(=O)=O)ccc1OC [S-(−)-sulpiride]
